From PubChem BioAssay (NCATS) come the findings set out here.

Sequences of proteins named here, by UniProt entry; tags and fusion partners are left off.
UniProt P36969, whole entry, looked up: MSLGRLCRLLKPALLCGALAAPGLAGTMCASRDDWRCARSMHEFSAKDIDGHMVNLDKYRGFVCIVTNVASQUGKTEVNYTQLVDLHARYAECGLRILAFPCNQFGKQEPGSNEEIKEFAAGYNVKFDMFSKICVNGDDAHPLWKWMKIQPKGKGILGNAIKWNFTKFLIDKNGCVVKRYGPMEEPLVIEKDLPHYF

Only a part is listed here, and it is no random draw. Inconclusive results are not listed. The source made the active and inactive calls. Calls follow the shape of the dose curve; as a rule, active = well fitted inhibition curve with a large enough effect; inconclusive = small, poorly fitted or top-dose-only effect; inactive = flat fitted curve, though single readings scatter.

In the experiment the target is Phospholipid hydroperoxide glutathione peroxidase GPX4 (Homo sapiens) (UniProt P36969). In words: Primary qHTS Assay for Inhibitors of Recombinant Selenoprotein Glutathione Peroxidase 4 (GPX4) (AID 1845192). Also: nearly all actives have a fitted effect of over 65% in size. The following applies: recombinant GPX4, GR-coupled NADPH fluorescence, 15 min; activity change, negative = inhibition: at 50 µM (top of the series). From the text: Assay Provider: Elias S.J. Arner MD PhD.
Department of Medical Biochemistry and Biophysics
Karolinska Institutet, Solna, Stockholm, Sweden
Selenoprotein glutathione peroxidases (GPX), like the ubiquitously expressed GPX1 and the ferroptosis modulator GPX4, enact their antioxidant activities by reducing hydroperoxides using glutathione. […] GPX1 and GPX4 inhibitors have thus shown promise as anti-cancer agents. Existing inhibitors are often promiscuous, or modulate GPX activity only indirectly, so novel direct inhibitors identified through screening against GPX1 and GPX4 could be valuable. Here, we developed optimized glutathione reductase (GR)-coupled GPX assays for the biochemical high-throughput screen (HTS) of almost 12,000 compounds with known mechanisms of action. Initial hits were triaged using a GR counter-screen, assessed for isoform specificity using a separate GPX2 assay, and were assessed for general selenocysteine-targeting activity using a thioredoxin reductase (TXNRD1) assay. With this suite of assays, we identified novel GPX1/GPX2- and GPX4-specific inhibitors and can here present a validated pipeline for future discovery research for selenoprotein-targeting agents.
SEQUENCE No. (e.g., 1, 2, 3, etc.); […] (e.g., Cells, Incubation, Reagent, etc.); VALUE; DESCRIPTION.
1; Reagent 1; 3 uL; 333.33 nM GPx4 enzyme or no enzyme control in 1536-well, black, solid Greiner assay plate.
2; Compound; 25 nL; Kalypsis pin tool (Wako USA) equipped with a 1536-well pin head.
3; Incubation; 30 min; room temperature.
4; Reagent 2; 1 uL; 500 nM GR, 5 mM GSH, 2.5 mM NADPH solution
5; Reagent 3; 1 uL; 2.5 mM CHP in 50% EtOH.
6; Detection; Fluorescence; ViewLux microplate reader, excitation 340 nm and emission 450 nm.
7; Incubation; 15 min; room temperature.
8; Detection; Fluorescence; ViewLux microplate reader, excitation 340 nm and emission 450 nm.
NOTES (numbers refer to Sequence numbers above)
1. 3 µL of 333.33 nM GPX4 and 0.016% BSA in assay buffer (50 mM Tris-HCl, 2 mM EDTA (pH 7.5), 150 mM NaCl) was added to columns 3-48 of 1536-well plates using a BioRAPTR Flying Reagent Dispenser (Let's Go Robotics (LGR), Carlsbad, CA). A no-enzyme control (0.01% BSA in TES assay buffer) was added to columns 1-2.
2. 25 nL, library and DMSO controls were added to each well with a pin tool (Kalypsys).
3. The assay plates were incubated for 30 minutes at room temperature.
4. 1 µL of master mix (500 nM glutathione reductase (GR), 5 mM reduced glutathione (GSH), 2.5 mM NADPH in assay buffer) was added.
5. 1 µL of cumene hydroperoxide (CHP) ([2.5 mM] in 50% EtOH) was then added within 5 minutes to initiate the reaction. Final concentrations were: 200 nM GPX4, 1 mM GSH, 0.5 mM CHP, 0.5 mM NADPH, 100 nM GR, 0.01% BSA.
6. Initial fluorescence readout (t=0) at 340/450 nm was measured using a ViewLux multimodal detector (PerkinElmer, Waltham, MA).
8. Endpoint fluorescence readout (t=15) at 340/450 nm was measured 15 min after room temperature incubation.
Take `NC(=O)Nc1ccc([As](=O)(O)O)cc1`: the activity change, negative = inhibition was inactive: 3.06%.

As to `CN(C(=O)Cc1ccc(Cl)c(Cl)c1)[C@@H]1CC[C@]2(CCCO2)C[C@H]1N1CCCC1`, the activity change, negative = inhibition was inactive: -13%.

`CN(C(=O)Cc1ccc(Cl)c(Cl)c1)[C@@H]1CCCC[C@@H]1N1CCCC1`: the activity change, negative = inhibition is inactive: -18.4%.

For `CN(C(=O)Cc1ccc(Cl)c(Cl)c1)[C@H]1CCCC[C@H]1N1CCCC1`, the activity change, negative = inhibition is inactive: 7.85%.

On to `CN(C(=O)Cc1ccc(Cl)c(Cl)c1)[C@H]1CCCC[C@@H]1N1CCCC1`, for which the activity change, negative = inhibition was inactive: 0.0869% and the result was inactive.

On to `O=C(O[C@H]1CN2CCC1CC2)C1NCc2ccccc2[C@@H]1c1ccccc1` (stereo not given in full), for which the activity change, negative = inhibition was inactive: -0.31%.

With `CN(C)C1(c2ccccc2)CCC2(CC1)OCCc1c2[nH]c2ccc(F)cc12` (stereo not given), the activity change, negative = inhibition was inactive: -1.23%.

As to `CN(C(=O)Cc1ccccc1)[C@@H]1CC[C@]2(CCCO2)C[C@H]1N1CCCC1`, the activity change, negative = inhibition was inactive: -23.6%.

Consider `CCn1c(=O)n([C@@H]2CCN(CC3CCCCCCC3)C[C@H]2CO)c2ccccc21`, for which the activity change, negative = inhibition is inactive: 6.33%.
